ChEMBL document CHEMBL4138209, “Inhibitory effects and structural insights for a novel series of coumarin-based compounds that selectively target human CA IX and CA XII carbonic anhydrases” (Eur J Med Chem, 2018)

Legend:
Carbonic anhydrase 9 = Carbonic anhydrase 9 (Homo sapiens, UniProt Q16790); assay: Inhibition of human carbonic anhydrase 9 incubated for 15 mins prior to testing by stopped-flow CO2 hydration assay
Carbonic anhydrase 2 = Carbonic anhydrase 2 (Homo sapiens, UniProt P00918); assay: Inhibition of human carbonic anhydrase 2 incubated for 15 mins prior to testing by stopped-flow CO2 hydration assay

- Ki (Carbonic anhydrase 9): 24.9 nM
- Ki (Carbonic anhydrase 2): > 10000 nM
SMILES: O=c1ccc2ccc(O)cc2o1 [UMBELLIFERONE]
